High-throughput results from PubChem BioAssay.
G9a block: G9a (human) methyltransferase inhibition; hit rate 8.8% among 350,000; G9a H3K9 monomethylation, AlphaScreen, 2 h; Potency, µM (highest dose often 102 µM), actives largely listed as inhibitors; Q96KQ7; note: nearly all actives have a fitted effect of over 75% in size
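AlphaScreen detection with an anti-monomethyl H3K9 antibody quantified product after a 2 h room-temperature reaction containing 500 nM biotinylated H3K9 peptide, 20 µM SAM and 20 nM enzyme, which had been preincubated 15 min with compound.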
LMNA splice mod: LMNA splicing modulation; HeLa LMNA splicing GFP/RFP minigene ratio, 48 h; Potency, µM (highest dose often 46.1 µM), actives largely listed as inhibitors; hit rate 0.01% among 200,000; active = well fitted inhibition curve with a large enough effect in the signal ratio, with a control signal flat, not every such curve was filed as active; inconclusive = small, poorly fitted or top-dose-only effect, or effect the other way, or a change in a side signal; the % refers to the signal ratio
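S3 HeLa stable clones carrying a lamin A-EGFP splicing minigene plus DsRed2 were seeded at 600 cells/well in Opti-MEM with 2% FBS, pin-dosed and incubated 48 h at 37°C. Acumen cytometry (488 nm) gave the GFP/RFP total-intensity ratio.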
ALDH1A1 block: blocks purified human ALDH1A1 activity; Purified ALDH1A1, NADH fluorescence, propionaldehyde substrate; Potency, µM (top dose mostly 75.3 µM), actives largely listed as inhibitors; hit rate 7.3% among 220,000; AID 1030; active = well fitted inhibition curve with a large enough effect, not every such curve was filed as active; inconclusive = small, poorly fitted or top-dose-only effect, or another doubt; inactive = no such curve, though single readings can be large or run the other way
JMJD2E inh: JMJD2E (human) inhibition | JMJD2E catalytic domain, FDH-coupled NADH fluorescence (FDH is formaldehyde dehydrogenase) | Potency, µM (top dose mostly 57.1 µM), most hits filed as inhibitors | hit rate 1.6% among 230,000; active = well fitted inhibition curve with a large enough effect, not every such curve was filed as active; inconclusive = small, poorly fitted or top-dose-only effect, or another doubt; inactive = no such curve, though single readings can be large or run the other way; note: nearly all actives have a fitted effect of over 50% in size
miR-21 reporter: raises the signal of a miR-21 reporter | HeLa miR-21 FLuc reporter, luciferase, 48 h | Potency, µM (doses to about 38.3 µM) | 340,000 tested, under 10 active | AID 2288; active = well fitted rising curve with a large enough effect; inconclusive = small, poorly fitted or top-dose-only effect; inactive = no such curve, though single readings can be large or run the other way;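 also: miR-21 action dims this reporter so a rising signal means less miR-21 action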
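HeLa miR-21-FLuc reporter line, endogenous miR-21; 2000 cells/well in DMEM/10% FBS; compound titration up to ~40uM final, 48 h, 37 degree Celsius; luciferase detection reagent, 15 min lysis, CCD luminescence.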
Sfp PPTase inh: inhibitors of Bacillus subtilis Sfp phosphopantetheinyl transferase; Q9F4F7; Biochemical Sfp PPTase activity, qHTS; Potency, µM, most hits filed as inhibitors; hit rate 3.5% among 310,000; AID 1490;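 note: the enzyme is Sfp with the accession as filed and its product quenches rhodamine fluorescence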
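Compounds were incubated with enzyme (final 15 nM) for 15 min at room temperature before substrate addition started the reaction. Fluorescence at 525 nm excitation, 598 nm emission was recorded immediately and after 30 minutes.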
Hits are given with their value; . = inactive; ? = inconclusive; / = no result given; ! = not active in a repeat; [ ] = remark or other dose. Shown are actives, neighbours in structure and some others; about 13% of the full set was active somewhere. Unless noted, calls come from the whole dose curve; as a rule, active = well fitted curve in the direction sought with a large enough effect; inconclusive = small, poorly fitted or top-dose-only effect, or another doubt; inactive = no such curve, though single readings can be large; an effect the other way counts as inactive or inconclusive.

SMILES	G9a block	LMNA splice mod	ALDH1A1 block	JMJD2E inh	miR-21 reporter	Sfp PPTase inh
O=C(Cc1ccc(F)cc1)NCCS(=O)(=O)N1CCN(c2cccc(Cl)c2)CC1	.[0.501 µM]	/	/	/	/	/
O=C(N/N=C/c1ccc(O)c(O)c1)c1ccc(CSc2cccc3cccnc23)cc1	35.5µM	.	.	?	.	.
Nc1ccccc1-n1cccc1	.	/	.	?	.	.
CC1CCc2c(sc(NC(=O)Cn3nnc(-c4ccc(C(F)(F)F)cc4)n3)c2C#N)C1 (stereo not drawn)	.	/	/	/	.	/
CC(C)N(C(=O)CN(C#N)c1nc(N(C)C)nc(N(C)C)n1)c1ccccc1	.	.	8.91µM	.	.	?
Cc1nn(C)c2ncc(C(N)=O)c(Oc3ccc(Cl)cc3)c12	?	?	.	?	.	.
COc1ccc2[nH]cc(CCn3ccc(O)c(C/C=C/c4ccccc4)c3=O)c2c1	?	/	14.1µM	.	.	.
O=c1c(C/C=C/c2ccccc2)c(O)ccn1CCc1c[nH]c2ccccc12	?	/	39.8µM	.	.	.
CC1=Nc2cc(C(=O)NC3CCCCC3)ccc2Sc2ccc(Cl)cc21	.	?	/	/	.	/
O=C(COc1ccc(C(=S)N2CCOCC2)cc1Cl)Nc1ccccc1Cl	7.08µM	/	17.8µM	.	.	20µM
COc1ccc(C(=S)N2CCOCC2)cc1OC(=O)c1ccccc1Cl	11.2µM	/	/	/	.	56.2µM
COc1ccc(C(=S)N2CCOCC2)cc1OC(=O)c1ccc([N+](=O)[O-])cc1[N+](=O)[O-]	39.8µM	/	/	/	.	.
COc1cc(C(=S)N2CCCCC2)ccc1OCC(=O)Nc1ccccc1Cl	?	?	.	.	.	.
COc1cc(C(=S)N2CCOCC2)ccc1OC(=O)c1cc([N+](=O)[O-])cc([N+](=O)[O-])c1	7.94µM	.	?	.	.	.
COc1cc(C(=S)N2CCOCC2)cc(OC)c1OC(=O)c1ccccc1[N+](=O)[O-]	?	/	/	/	.	.
COc1cc(C(=S)N2CCOCC2)ccc1OC(=O)c1ccccc1C	/	/	/	/	.	.
Cc1ccc(S(=O)(=O)c2nnn3c2nc(N2CCN(c4ccccc4F)CC2)c2ccccc23)cc1C	.	.	/	/	.	/
O=C(Nc1ccc(F)cc1C(F)(F)F)C1CCN(c2ncccn2)CC1	.	/	/	/	.	/
Cc1cc(NC(=O)Nc2nnc(N3CCCCCC3)s2)ccc1Br	.	/	/	/	.	/
COc1cc(C(=S)N2CCOCC2)ccc1OC(=O)c1cccc(C)c1	22.4µM	/	/	/	.	79.4µM
O=C(Oc1ccccc1C(=S)N1CCOCC1)c1ccc([N+](=O)[O-])cc1[N+](=O)[O-]	50.1µM	/	/	/	.	.
COc1cc(C(=S)N2CCOCC2)ccc1OC(=O)c1ccc(Br)cc1	.	/	/	/	.	.
O=C(c1cc([N+](=O)[O-])ccc1N1CCOCC1)N1CCOCC1	.	.	.	.	.	.
O=[N+]([O-])c1ccc(N=Nc2ccc(O)cc2O)cc1	39.8µM	?	10µM	.	.	.
COc1cccc(CNC(=O)c2sc3nc(C)cc(C)c3c2-n2cccc2)c1OC	.	/	/	/	.	/
SMILES	G9a block	LMNA splice mod	ALDH1A1 block	JMJD2E inh	miR-21 reporter	Sfp PPTase inh
CCOC(=O)c1c(-c2ccncc2)csc1N	?	.	?	.	.	.
CCOc1ccc(-c2csc(N)c2C(=O)OC)cc1	4.47µM	.	22.4µM	.	.	44.7µM
C=CCSc1nc2c(sc3nc(C)cc(C)c32)c(=O)[nH]1	44.7µM	.	.	?	.	.
Cc1cc(C)c2c(n1)sc1c(=O)[nH]c(SCc3ccccc3)nc12	?	.	?	.	.	.
CC(C)(C)OC(=O)N1CCC[C@@H]1CO	.	/	/	/	/	.
CCCCC[C@H](CC(=O)NO)C(=O)N[C@H](C(=O)N1CCC[C@H]1CO)C(C)C	9.47µM!	?	.	.	/	/
CC(C)CC1NC(=O)C(CCCN)NC(=O)C(C(C)C)NC(=O)C2CCCN2C(=O)C(Cc2ccccc2)NC(=O)C(CC(C)C)NC(=O)C(CCCN)NC(=O)C(C(C)C)NC(=O)C2CCCN2C(=O)C(Cc2ccccc2)NC1=O (stereo not drawn)	.[2.33 µM]	?	.	25.1µM	/	.
O=C1N[C@@H](Cc2ccccc2)C(=O)N2CCCC12 (stereo partly drawn)	.	/	.	/	/	.
N#CC1(NC(=O)CN2C(=O)NC3(CCCCCC3)C2=O)CCCCC1	.[12.7 µM]	/	/	/	/	/
O=C(Cn1nc(CNc2ccc(Br)cc2)[n+]2c1CCCCC2)c1ccc([N+](=O)[O-])cc1	70.8µM	/	/	.	.	56.2µM
O=C(Cn1nc(CNc2ccc(Cl)cc2)[n+]2c1CCCCC2)c1ccc(Br)cc1	?	?	?	.	.	?
COc1ccc(NCc2nn(CC(=O)c3ccc(Br)cc3)c3[n+]2CCCCC3)cc1	35.5µM	/	?	?	.	.
Cc1[nH]n(-c2ccccc2)c(=O)c1/C=N/Nc1nncc(-c2ccccc2)n1	20µM	?	?	?	.	.
CCCCN(CCCC)C(=S)N/N=C/c1c(C)[nH]n(-c2ccccc2)c1=O	?	?	5.01µM	?	.	.
Cc1[nH]n(-c2ccccc2)c(=O)c1/C=N/NC(=O)c1cccc(F)c1	25.1µM	/	/	/	.	.
CSc1nc(N)nc(SC2C=CCCC2)c1C#N (stereo not drawn)	.[12.7 µM]	.	12.6µM	.	.	.
O=C(O)c1nccnc1C(=O)Nc1ccc(Cl)cn1	44.7µM	/	/	/	.	.
COC(=O)c1cc(NC(=O)c2cc(C)oc2C)cc(C(=O)OC)c1	?	.	25.1µM	.	.	.
Cc1cc(C)cc(NC(=O)c2nccnc2C(=O)O)c1	25.1µM	.	?	?	.	?
NC(=O)NC(=O)c1nccnc1C(=O)O	.[0.501 µM]	/	.	.	.	.
Cc1ccc(NC(=O)c2nccnc2C(=O)O)cc1C	44.7µM	.	.	.	.	.
CCOC(=O)C1CCN(C(=O)C2CCN(S(=O)(=O)c3ccc4ccccc4c3)CC2)CC1	.	/	/	/	.	.
COc1ccc([C@H]2C=C(C(=O)O)O[C@@H](OCCCCO)C2)cc1	.[12.7 µM]	/	/	?	.	.
CC(=O)c1cccc(NC(=O)c2nccnc2C(=O)O)c1	?	.	.	.	.	.
COC(=O)c1cc(NC(=O)c2nccnc2C(=O)O)cc(C(=O)OC)c1	44.7µM	.	.	?	.	56.2µM
SMILES	G9a block	LMNA splice mod	ALDH1A1 block	JMJD2E inh	miR-21 reporter	Sfp PPTase inh
Cc1nnsc1C(=O)NNc1ccc(C(C)C)cc1	8.91µM	.	?	.	.	.
Cc1cc(C(=O)NNc2ccc(C(C)C)cc2)n(C(C)(C)C)n1	7.94µM	/	/	.	.	.
Cc1nnsc1C(=O)Oc1ccc(C(C)C)cc1	.	.	/	/	.	/
Cc1nnsc1C(=O)NNc1ccc(C(C)(C)C)cc1	1.78µM	/	31.6µM	.	.	.
Cc1nnsc1C(=O)NNC(=O)c1ccc(C(F)(F)F)cc1	/	/	.	.	.	.
Cc1ccc(C)c(S(=O)(=O)N2CCCOC2CNC(=O)C(=O)NCc2ccc3c(c2)OCO3)c1 (stereo not drawn)	/	/	/	/	.	.
CCCN(CCC)C(=O)c1ccc2nc(-c3ccc(OC)c(OC)c3)c(-c3ccc(OC)c(OC)c3)nc2c1	.	/	/	/	.	.
